Bioassay records from PubChem BioAssay.
GIV Gai3 FP: inhibitors of GIV GBA-motif binding to rat Galpha-i3; P08753; Galpha-i3/FITC-GIV peptide fluorescence polarization, 90 min; hits give low values; scaled: aluminum fluoride 0%, vehicle 100%; percent of control (FP), % (test concentration not listed); actives 0.42% (n = 210,000); AID 1224905;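 active = replicate mean at 85% of control or lower, very high polarization wells dropped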;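 also: wells of about 15 µL received 100 nL stock; the first replicate is given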
HCMV NEC inh: inhibitors of HCMV UL50-UL53 interaction, biochemical, HTRF. 190,000 compounds, 0.15% hits. inhibition, % (test concentration not listed). normalized percent inhibition. HCMV UL50-UL53 nuclear egress complex (human cytomegalovirus); in the data active means inhibition above about 27%, passing the limit was not always enough
* marks the source's active call; other numbers are inactive results; . = not tested or not shown. A selection: hits, their analogues and other compounds. The true share with any hit is near 0.46%.

1. CC(C)(C)NC(=O)c1cc(NC(=O)C(F)(F)F)cc(NC(=O)C(F)(F)F)c1
2. Cc1ccc(-c2nc(CCN(C)S(=O)(=O)c3c(C)noc3C)no2)cc1
3. C=CCN1C(=O)c2oc3ccccc3c(=O)c2C1c1ccc(OC)cc1 (stereo unspecified)
4. Cn1c(=O)oc2cc(S(=O)(=O)NC(Cc3ccccc3)C(=O)NCc3ccco3)ccc21 (stereo unspecified)
5. COc1cccc2c1C(=O)c1c(O)c3c(c(O)c1C2=O)C[C@@](O)(C(C)=O)C[C@@H]3O[C@H]1C[C@H](N)[C@H](O)[C@H](C)O1
6. COc1cccc2c1C(=O)c1c(O)c3c(c(O)c1C2=O)C[C@@](O)(C(C)=O)CC3O[C@H]1CC(N)C(O)C(C)O1 (stereo partly specified)
7. COc1cccc2c1C(=O)c1c(O)c3c(c(O)c1C2=O)C[C@@](O)(C(=O)CO)CC3O[C@H]1CC(N)C(O)C(C)O1 (stereo partly specified)
8. CC(=O)[C@]1(O)Cc2c(O)c3c(c(O)c2[C@@H](O[C@H]2C[C@H](N)[C@H](O)[C@H](C)O2)C1)C(=O)c1ccccc1C3=O

screen / no. | 1 | 2 | 3 | 4 | 5 | 6 | 7 | 8
GIV Gai3 FP | . | 97.8 | . | 102.0 | 46.8* | . | . | -45.9*
HCMV NEC inh | 13.8 | 6.2 | 0.9 | . | -180.6 | -249.3 | -190.3 | -145.0

Records above that bear a hit mark in GIV Gai3 FP:
#	Structure	GIV Gai3 FP
5	COc1cccc2c1C(=O)c1c(O)c3c(c(O)c1C2=O)C[C@@](O)(C(C)=O)C[C@@H]3O[C@H]1C[C@H](N)[C@H](O)[C@H](C)O1	46.8*
8	CC(=O)[C@]1(O)Cc2c(O)c3c(c(O)c2[C@@H](O[C@H]2C[C@H](N)[C@H](O)[C@H](C)O2)C1)C(=O)c1ccccc1C3=O	-45.9*

Carrying on.
9. COc1ccc(OC)c(NC(=O)CSc2cn(C)c3ccccc23)c1
10. COc1ccc(/C=C2\Sc3ccc(C(=O)N4CCOCC4)cc3N(C)C2=O)cc1OC
11. N#CC(C#N)C(C#N)(C#N)C1CCCC1=O (stereo unspecified)
12. CC(C)Nc1nc(Cl)nc(Nc2ccc(-c3nc4ccccc4o3)cc2)n1
13. COC(=O)CC(=O)c1cc2ccccc2oc1=O
14. CC(=O)Nc1c(O)nc(SCC(=O)NC(C)c2ccccc2)n(-c2ccccc2)c1=O (stereo unspecified)
15. CCN1CC=C2C(C1)C(c1ccc(Cl)s1)C(C#N)=C(N)C2(C#N)C#N (stereo unspecified)
16. CCCN1CC=C2C(C1)C(c1ccc(C(=O)OC)cc1)C(C#N)=C(N)C2(C#N)C#N (stereo unspecified)

screen / no. | 9 | 10 | 11 | 12 | 13 | 14 | 15 | 16
GIV Gai3 FP | 98.9 | 107.9 | 68.3* | 101.3 | . | 99.7 | -52.5* | 109.6
HCMV NEC inh | 3.7 | . | -4.2 | -14.0 | -73.0 | -24.6 | -28.6 | -55.7

17. CC(C)N1C/C(=C/c2ccc(Br)o2)C(=O)/C(=C/c2ccc(Br)o2)C1
18. CCc1nc2ccccc2c(C(=O)OCC(=O)Nc2ccc3c(c2)OCCCO3)c1C
19. CN1CCCc2cc(/C=C3\CCC(C4CCCC4)C3=O)ccc21 (stereo unspecified)
20. CN1CCCc2cc(/C=C3\CC/C(=C/c4ccc5c(c4)N(C)CCC5)C3=O)ccc21
21. COC(=O)c1c(C)[nH]c(C(=O)C(C)OC(=O)c2ccccc2NS(=O)(=O)c2ccc3[nH]c(=O)[nH]c3c2)c1C (stereo unspecified)
22. O=c1[nH]c2c(s1)C=Nc1cc3ccccc3cc1N2
23. COc1ccc(-c2nc(OCC(=O)Nc3cccc(OC)c3)c3c4c(sc3n2)CCCC4)cc1
24. CCOc1ccc(S(=O)(=O)Nc2cc(Cl)c(O)c3ccccc23)cc1

screen / no. | 17 | 18 | 19 | 20 | 21 | 22 | 23 | 24
GIV Gai3 FP | 164.1 | . | 157.1 | -74.8* | . | 59.2* | 102.9 | .
HCMV NEC inh | -16.3 | -8.7 | . | . | -8.6 | -36.4 | -14.9 | 59.1*

25. CCCOC(=O)c1c(C)oc2c1cc(NS(=O)(=O)c1ccc(OCC)cc1)c1ccccc12
26. Nc1c(C(=O)Nc2ccc(F)cc2)sc2nc(-c3cccs3)cc(C(F)(F)F)c12
27. COc1ccc(NC(=O)c2sc3nc(-c4ccc(OC)cc4)cc(C(F)(F)F)c3c2N)cc1
28. CC(=O)N1CCN(CC(O)COCc2ccccc2F)CC1 (stereo unspecified)
29. Cc1ccc(-n2[nH]c(C)c(N=Nc3cccc(-c4cccc(C(=O)O)c4)c3O)c2=O)cc1C
30. CC(=O)c1ccc(N=Cc2c(C)[nH]n(-c3ccc(C)c(C)c3)c2=O)cc1
31. CC(C)(C)c1ccc(Cn2c(CO)cc3sccc32)cc1
32. Cc1cc2nc(COc3ccccc3)cc(=O)n2o1

screen / no. | 25 | 26 | 27 | 28 | 29 | 30 | 31 | 32
GIV Gai3 FP | 108.2 | -12.2* | 96.4 | . | . | 110.5 | 103.2 | 99.1
HCMV NEC inh | -43.1 | -47.6 | -41.4 | -1.0 | 79.7* | . | -1.2 | -4.7

33. Cc1cc2nc(CN3CCCc4ccccc43)cc(=O)n2o1
34. COc1cc2c(C#N)c(N(C)CCc3ccc(OC)c(OC)c3)nc(N)c2c(N)n1
35. COc1ccc(CCN(C)c2nc(N)c3c(N)nc(SCC(=O)O)cc3c2C#N)cc1OC
36. CCc1cc(C2CCCN2S(=O)(=O)c2ccc(F)cc2)on1 (stereo unspecified)
37. Cc1ccc(C(=O)NC(c2ccccc2)c2ccccc2)o1
38. CC(C)NS(=O)(=O)c1ccc(-c2ccno2)s1
39. CC1CCC(NS(=O)(=O)c2ccc(-c3ccno3)s2)CC1 (stereo unspecified)
40. CCc1nc(-c2csc(S(=O)(=O)N3CCC(C(=O)Nc4ccc(OC)cc4)CC3)c2)no1

screen / no. | 33 | 34 | 35 | 36 | 37 | 38 | 39 | 40
GIV Gai3 FP | 74.9* | . | . | 98.4 | . | 31.3* | 94.9 | 103.4
HCMV NEC inh | -59.5 | -11.1 | 82.4* | . | -5.9 | . | . | .
